Data taken from patent publication US20230303584A1, “4,5,6,7-TETRAHYDROTHIENO[2,3-C]PYRIDINE SUMO INHIBITORS AND USES THEREOF” (SUVALENT THERAPEUTICS INC., priority 2020, published 2023).

Chains of the proteins cited; added tags and fusions are not shown.
UniProt Q9UBT2, whole entry: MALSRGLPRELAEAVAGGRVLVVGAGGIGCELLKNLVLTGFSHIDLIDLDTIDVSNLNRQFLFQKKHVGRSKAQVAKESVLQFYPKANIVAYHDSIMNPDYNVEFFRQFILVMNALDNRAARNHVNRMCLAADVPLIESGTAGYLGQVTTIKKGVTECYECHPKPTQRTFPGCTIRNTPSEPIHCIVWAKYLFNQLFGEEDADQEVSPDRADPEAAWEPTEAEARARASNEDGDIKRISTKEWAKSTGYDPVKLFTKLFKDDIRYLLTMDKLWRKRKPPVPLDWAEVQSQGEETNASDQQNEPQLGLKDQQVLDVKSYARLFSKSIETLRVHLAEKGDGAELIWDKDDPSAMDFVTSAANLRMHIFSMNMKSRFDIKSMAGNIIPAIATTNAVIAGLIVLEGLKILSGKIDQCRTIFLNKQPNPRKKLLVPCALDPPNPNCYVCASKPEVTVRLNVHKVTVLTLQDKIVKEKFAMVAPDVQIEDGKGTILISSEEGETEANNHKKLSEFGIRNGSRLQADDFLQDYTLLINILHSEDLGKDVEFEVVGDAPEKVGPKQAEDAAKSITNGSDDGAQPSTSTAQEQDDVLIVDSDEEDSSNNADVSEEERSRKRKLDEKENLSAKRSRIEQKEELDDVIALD
UniProt Q9UBE0, whole entry partner: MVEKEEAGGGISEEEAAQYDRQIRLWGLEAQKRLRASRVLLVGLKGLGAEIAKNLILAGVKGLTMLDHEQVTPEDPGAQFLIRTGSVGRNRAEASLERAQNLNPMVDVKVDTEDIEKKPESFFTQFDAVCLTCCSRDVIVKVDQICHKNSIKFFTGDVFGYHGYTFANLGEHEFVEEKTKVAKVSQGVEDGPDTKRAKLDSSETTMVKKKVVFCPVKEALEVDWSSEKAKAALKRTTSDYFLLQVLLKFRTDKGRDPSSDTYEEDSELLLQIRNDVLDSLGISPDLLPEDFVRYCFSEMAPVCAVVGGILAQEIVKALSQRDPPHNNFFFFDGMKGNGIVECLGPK

Tests used:
[1] = biological target: SAE1 (Homo sapiens (Human), UniProt Q9UBT2); experiment: SAE high throughput biochemical (HTRF) assay; settings: for IC50: read-out: 15 min preincubation HTRF IC50 (uM) Ave, 100 µM ATP; for HTRF percent of control (POC) @ 25 µM: single concentration 25 µM, 15 min preincubation
Protocol: Assay buffer was prepared [50 mM HEPES, pH 7.5, 0.1% BSA and 10 mM MgCl2] as was the Stop Buffer [100 mM HEPES, pH 7.5, 0.05% Tween20, and 410 mM KF]. The 2x Reaction Buffer [80 nM SUMO-GST, 80 nM UBC9-His, 200 µM ATP and diluted in Assay Buffer] and Antibody Reaction Mix [13.34 nM anti-GST XL665, 1.66 nM anti-His EuK and Diluted in Stop Buffer] were also prepared. Compounds were dissolved at 200x in DMSO in a 384-well plate. Serial dilutions were performed in DMSO for each compound, and then each concentration was diluted another 50-fold in Assay Buffer, to 4x the final concentration. 2.5 µL of each concentration was transferred into its own well in a 384-well plate. SAE1 was then diluted to 4x in Assay Buffer, and 2.5 µL of 4x SAE1 was mixed into each compound-containing well. After incubating for 15 minutes at room temperature, 5 µL of 2x Reaction Buffer was mixed into every well. Then after another 45 minutes at room temperature, 10 µL of Antibody Reaction Mix was added and mixed into every well. This plate was then read on an HTRF-compatible plate reader after 2 hours at room temperature, and again after sitting at room temperature overnight. [Final Component Concentrations: SAE1: 12.5 nM; SUMO-GST: 40 nM; UBC9-His: 40 nM; Anti-GST-XL665: 6.67 nM; Anti-His-EuK: 0.83 nM; and ATP: 100 µM ] Alternatively, the compounds are tested at a single concentration of 25 micromolar and the percent of control is measured.

[2] = system: SUMO 2/3 conjugates (sumoylation levels) in HCT-116 cells; experiment: HCT-116 4 hour cell assay, immunoblot of SUMO 2/3 conjugates; settings: read-out: Cell HCT-116 Western SUMO 2/3 4 h IC50 (uM) Ave, 4 h treatment, Western blot
Protocol: This protocol describes the procedures used to assess the effects of compounds of interest on sumoylation levels. Immunoblot of SUMO ⅔ conjugates are performed and IC50 curves are generated upon quantification of sumoylations bands. HCT-1 16 cells are seeded in a 12 well plate (500,000 cells/well). The following day the cells are treated with compounds of interest (resuspended in DMSO) for 4 hours (11 concentrations with a three-fold dilution; starting concentration 25 µM) Following 4 hours of incubation the cells are washed with ice cold PBS 1X and protein extraction is performed with RIPA buffer supplemented with phosphatases and proteases inhibitors, 25 mM of NEM and 50 units/mL of Benzonase . Samples undergo centrifugation at 13,000 RPM, 4° C., for 10 minutes and the supernatant is collected. Protein quantification is performed using BCA. Non-Reducing Laemmli Buffer is added to the samples. Samples are heated at 75° C. for 10 minutes, and are centrifuged for 3 minutes at 9000 RPM Nupage 4-12% Bis Tris gels and 1x MOPS buffer (Fisher Scientific) + 1x NuPAGE Antioxidant (Invitrogen) are used to perform the SDS-PAGE gel electrophoresis (20 to 40 µg of proteins are loaded in the gels). Proteins are then transferred to PVDF membranes and the level of total proteins are measured by staining with Revert Total Protein Stain and the fluorescent bands are acquired using the LI-COR FC (700 nm for 1 min) Membranes are blocked for 5 minutes with Bio-Rad Blocking Buffer and are subsequently incubated over night at 4° C. with Anti-Sumo 2-3 mAb (MBL #M114-3, 1:1000 in Bio-Rad Blocking Buffer, 0.2% Tween 20) Membranes are washed with 1X TBS-T (3 times for 5 minutes) and sumoylation is detected using Li-cor IRDye 800CW Goat anti-Mouse IgG secondary antibody (1:10,000 dilution) upon 1 hour of incubation in blocking buffer with 0.2% Tween 20 and 0.01% SDS. After the incubation, the membranes are washed with 1X TBS-T (3 times for 5 minutes). To visualize the fluorescent bands the membranes are scanned with LI-COR FC (700 nm for 1 min and […] for 2 mins) Sumoylation levels are quantified upon normalization with total protein levels, using the LI-COR Image Studio Lite 5.2 Software.

| IC50 [2] | Structure (SMILES) | IC50 [1] | HTRF percent of control (POC) @ 25 µM [1] |
| --- | --- | --- | --- |
| 1.58 µM | CN(C)C/C=C/C(=O)N1Cc2sc(Cl)cc2[C@H](c2ccccc2-c2cn(C)nc2C(F)(F)F)C1 | 1.01 µM | – |
| 0.96 µM | CCn1cc(-c2ccccc2[C@@H]2CN(C(=O)/C=C/C3CCCN3C)Cc3sc(Cl)cc32)c(C(F)(F)F)n1 (stereo partly shown) | 2.59 µM | – |
| 0.58 µM | [2H]C([2H])([2H])n1cc(-c2ccccc2[C@@H]2CN(C(=O)C=C)Cc3sc(Cl)cc32)c(C(F)(F)F)n1 | 0.26 µM | – |
| 0.51 µM | C=CC(=O)N1Cc2sc(Cl)cc2[C@H](c2ccccc2-c2cn(CCC)nc2C(F)(F)F)C1 | 0.31 µM | – |
| – | CCn1cc(-c2ccccc2C2c3cc(Cl)sc3CN(C(=O)/C=C/CN(C)C)C2C)c(C(F)(F)F)n1 (stereo not shown) | 3.57 µM | – |
| – | C=CC(=O)N1Cc2sc(Cl)cc2C(c2ccccc2-c2cn(CC3CC3)nc2C(F)(F)F)C1 (stereo not shown) | 1.4 µM | – |
| – | C=CC(=O)N1Cc2sc(Cl)cc2C(c2ccccc2-c2cccnc2)C1 (stereo not shown) | – | 34.59 POC @ 25 µM |
| – | C=CC(=O)N1Cc2sc(Cl)cc2C(c2ccccc2-c2cccnc2OCC)C1 (stereo not shown) | – | 33.75 POC @ 25 µM |
| – | C=CC(=O)N1Cc2sc(Cl)cc2C(c2ccccc2-c2ccc(C)nc2C)C1 (stereo not shown) | 3.72 µM | – |
| – | C=CC(=O)N1Cc2sc(Cl)cc2C(c2ccccc2-c2cn(C)nn2)C1 (stereo not shown) | – | >100 POC @ 25 µM |
| – | C=CC(=O)N1Cc2sc(Cl)cc2C(c2ccccc2-c2cn(C3CC3)nc2C(F)(F)F)C1 (stereo not shown) | 0.61 µM | – |
| – | C=CC(=O)N1Cc2sc(Cl)cc2C(c2ccccc2-c2cc(C)ccn2)C1 (stereo not shown) | – | 55.54 POC @ 25 µM |
| – | C=CC(=O)N1Cc2sc(Cl)cc2C(c2ccccc2-c2cc(C3CC3)nn2C)C1 (stereo not shown) | – | 94.96 POC @ 25 µM |
| – | C=CC(=O)N1Cc2sc(Cl)cc2C(c2ccccc2-c2cn(Cc3ccccc3)nc2C)C1 (stereo not shown) | 20.6 µM | 12.42 POC |
| – | C=CC(=O)N1Cc2sc(Cl)cc2[C@H](c2ccccc2-c2c(C)ncnc2C)C1 | 12.1 µM | – |
| – | C=CC(=O)N1Cc2sc(Cl)cc2C(c2ccccc2-c2cn(CCC)nc2C(F)(F)F)C1 (stereo not shown) | 0.31 µM | – |
| – | C=CC(=O)N1Cc2sc(Cl)cc2C(c2cscc2Br)C1 (stereo not shown) | 11.5 µM | – |
| – | C=CC(=O)N1Cc2sc(Cl)cc2[C@@H](c2ccccc2-c2cn(CC)nc2C(F)(F)F)C1 | > 25 µM | – |
| – | CCn1cc(-c2ccccc2[C@@H]2CN(C(=O)/C=C/CN3CCOCC3)Cc3sc(Cl)cc32)c(C(F)(F)F)n1 [Compound 364] | 20.2 µM | – |
| – | C=CC(=O)N1Cc2sc(Cl)cc2C(c2ccccc2-c2cccnc2Cl)C1 (stereo not shown) | – | 13.84 POC @ 25 µM |
| – | C=CC(=O)N1Cc2sc(Cl)cc2C(c2ccccc2-c2ncnn2C)C1 (stereo not shown) | – | 29.39 POC @ 25 µM |
| – | C=CC(=O)N1Cc2sc(Cl)cc2C(c2ccccc2-c2cc(C)ncn2)C1 (stereo not shown) | – | 91.85 POC @ 25 µM |
| – | C=CC(=O)N1Cc2sc(Cl)cc2C(c2ccccc2-c2cnsc2)C1 (stereo not shown) | 12.5 µM | – |
| 0.94 µM | [2H]C([2H])([2H])n1cc(-c2ccccc2[C@@H]2CN(C(=O)/C=C/CN(C)C)Cc3sc(Cl)cc32)c(C(F)(F)F)n1 | 0.83 µM | – |
| – | C=CC(=O)N1Cc2sc(Cl)cc2C(c2ccccc2-c2cnoc2)C1 (stereo not shown) | 10.4 µM | – |
| – | C=CC(=O)N1Cc2sc(Cl)cc2C(c2ccccc2-c2cncc3ccccc23)C1 (stereo not shown) | – | 60.9 POC @ 25 µM |
| – | C=CC(=O)N1Cc2sc(Cl)cc2C(c2ccccc2-c2ccnc(C)n2)C1 (stereo not shown) | – | 62.81 POC @ 25 µM |
| – | C=CC(=O)N1Cc2sc(Cl)cc2C(c2ccccc2-c2cccnc2C)C1 (stereo not shown) | 3.04 µM | – |
| – | C=CC(=O)N1Cc2sc(Cl)cc2C(c2ccccc2-c2cc(C)nn2C)C1 (stereo not shown) | 1.15 µM | 0 POC |
| – | C=CC(=O)N1Cc2sc(Cl)cc2C(c2ccccc2-c2ccccn2)C1 (stereo not shown) | – | 48.53 POC @ 25 µM |
